{
  "source": "patent US12419964B2",
  "about": "“Antibody drug conjugate (ADC) targeting Nectin 4 and comprising an exatecan payload” (ELI LILLY AND COMPANY, priority 2023, dated 2025)",
  "assay": "Aggregation by SEC-HPLC",
  "assay_type": "physicochemical",
  "details": "determined by SEC-HPLC, after conjugation",
  "description": "As determined by SEC-HPLC, less than 5% material was aggregated. […] (See FIG. 2 and corresponding Brief Description). Ex vivo stability of ETx-22 was assessed by incubating ETx-22 in mouse, cynomolgus or human serum and measuring DAR over time. (See FIG. 3 and corresponding Brief Description). In vitro cytotoxic activity was assessed for the HCT-116-2G10 clone expressing human nectin-4. (See FIG. 4 and corresponding Brief Description).\nAs a comparator ADC, the HA22 anti-Nectin-4 mAb was conjugated to maleimidocaproyl-valine-citrulline-PABC-MMAE to generate enfortumab vedotin. Briefly, a 15 mg/mL solution of the HA22 in 10 mM acetate 1% sorbitol, 3% L-arginine, pH 5.0 was supplemented with a 20% volume of 0.1 M Tris, 25 mM EDTA and 750 mM NaCl, pH 8.4 to adjust the pH of the solution to 7.5, 5 mM EDTA and 150 mM sodium chloride. […] The mixture was stirred for 60 minutes at 5° C., then for 15 additional minutes following the addition of 1 molar equivalents of N-acetylcysteine relative to cysteine reactive linker-MMAE compound. Excess quenched cysteine reactive linker-payload and other reaction components were removed by ultrafiltration/diafiltration of the antibody drug conjugate (ADC) with 10 volumes of 20 mM histidine, pH 6.0. The drug-antibody ratio (DAR) according to LC-MS analysis was 3.79 toxins per conjugated mAb. As determined by SEC-HPLC, less than 1% material was aggregated.",
  "data": [
    {"molecule": "ETx-22: ADC of H1L2_15A7.5 anti-Nectin-4 mAb (HC SEQ ID NO:5, LC SEQ ID NO:6) conjugated via cysteines to exatecan Linker-Payload of Formula (L-P′) (conjugate, exatecan linker-payload conjugated via cysteines) heavy: EVQLVESGGGLVQPGGSLRLSCAASGFTFSNYGMAWVRQAPGKGLEWVSFISNLAYGINYADTVTGRFTISRDNAKNSLYLQMNSLRAEDTAVYYCARGARATGWFAYWGQGTLVTVSSASTKGPSVFPLAPSSKSTSGGTAALGCLVKDYFPEPVTVSWNSGALTSGVHTFPAVLQSSGLYSLSSVVTVPSSSLGTQTYICNVNHKPSNTKVDKRVEPKSCDKTHTCPPCPAPEFEGGPSVFLFPPKPKDTLMISRTPEVTCVVVDVSHEDPEVKFNWYVDGVEVHNAKTKPREEQYNSTYRVVSVLTVLHQDWLNGKEYKCKVSNKALPASIEKTISKAKGQPREPQVYTLPPSREEMTKNQVSLTCLVKGFYPSDIAVEWESNGQPENNYKTTPPVLDSDGSFFLYSKLTVDKSRWQQGNVFSCSVMHEALHNHYTQKSLSLSPGK light: DIQMTQSPSSLSASVGDRVTITCKASQNVDTHVAWYQQKPGKAPKALIYSASYRYSGVPSRFSGSGSGTDFTLTISSLQPEDFATYYCQQYNSYPLTFGGGTKVEIKRTVAAPSVFIFPPSDEQLKSGTASVVCLLNNFYPREAKVQWKVDNALQSGNSQESVTEQDSKDSTYSLSSTLTLSKADYEKHKVYACEVTHQGLSSPVTKSFNRGEC", "values": [
      {"measurement": "material aggregated", "result": "less than 5%"}
    ]}
  ]
}
